Data published in publication PMC9099123 (Clinical and Translational Science, 2022).

Test: Safety and tolerability
Format: in vivo, human

Structure (SMILES): CNC(=O)c1ccc(N2C(=S)N(c3ccc(C#N)c(C(F)(F)F)c3)C(=O)C2(C)C)cc1F [enzalutamide]
- patients reporting TEAEs (following administration of enzalutamide, 12 TEAEs, five patients): 20.8%
- patients reporting TEAEs (following administration of the cocktail in combination with enzalutamide, two TEAEs, one patient): 4.3%
